The target of the test is MEK1 (Homo sapiens, UniProt Q02750, DEL33-52/S218E/S222D). Put plainly: MEK1 inhibition, ERK1/FI-Erktide fluorescence polarization assay with IMAP beads.

Amino acid sequences for entries named in this document (tags omitted). Chains listed by the source or under a name are the forms on record and can include a tag or linker.
UniProt Q02750, with tags, fused parts or gaps DEL33-52/S218E/S222D: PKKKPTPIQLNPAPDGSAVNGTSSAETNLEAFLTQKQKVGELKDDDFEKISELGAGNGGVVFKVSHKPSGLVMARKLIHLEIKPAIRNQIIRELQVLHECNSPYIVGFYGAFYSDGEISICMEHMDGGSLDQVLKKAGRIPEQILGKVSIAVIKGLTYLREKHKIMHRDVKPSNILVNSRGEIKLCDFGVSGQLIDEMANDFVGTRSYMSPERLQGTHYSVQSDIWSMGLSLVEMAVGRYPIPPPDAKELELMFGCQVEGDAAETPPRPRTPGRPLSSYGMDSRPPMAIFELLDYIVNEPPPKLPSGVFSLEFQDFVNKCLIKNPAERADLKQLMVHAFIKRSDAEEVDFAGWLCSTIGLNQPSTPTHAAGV

Some results are limits rather than exact numbers.

The results in this text go back to patent US8293901B2, “MAPK/ERK kinase inhibitors” (Takeda Pharmaceutical Company Limited, priority 2006, dated 2012).

On to `Cn1cnc2c(c(Nc3ccc(I)cc3F)cc(=O)n2C)c1=O` [Example 1, 5-(2-fluoro-4-iodophenylamino)-3,8-dimethylpyrido[2,3-d]pyrimidine-4,7(3H,8H)-dione], for which the IC50 is not below 16 nM.

With `Cn1c(=O)c(F)c(Nc2ccc(Br)cc2F)c2c(=O)n(C[C@@H](O)CO)cnc21` [Example 20, (R)-5-(4-Bromo-2-fluorophenylamino)-3-(2,3-dihydroxypropyl)-6-fluoro-8-methylpyrido[2,3-d]pyrimidine-4,7(3H,8H)-dione], the IC50 was not below 16 nM.
